Test results from ChEMBL document CHEMBL3217453, “Aminomethyl substituted thieno[2,3-d]pyrimidines as adenosine A2A receptor antagonists” (Medchemcomm, 2011).

Biological target: Adenosine receptor A2a (Homo sapiens, UniProt P29274)
Assay: Antagonist activity at human adenosine A2A receptor expressed in CHO-K1 cells preincubated for 15 mins before NECA addition measured after 5.5 to 6 hrs by beta-galactosidase reporter gene assay
Type: functional, cell-based

Nc1nc(-c2cccc(C(F)(F)F)c2)nc2sc(CN3CC=CC3)cc12
Ki: 1.07 µM
